Chains of the proteins cited; added tags and fusions are not shown.
UniProt P32245, whole entry: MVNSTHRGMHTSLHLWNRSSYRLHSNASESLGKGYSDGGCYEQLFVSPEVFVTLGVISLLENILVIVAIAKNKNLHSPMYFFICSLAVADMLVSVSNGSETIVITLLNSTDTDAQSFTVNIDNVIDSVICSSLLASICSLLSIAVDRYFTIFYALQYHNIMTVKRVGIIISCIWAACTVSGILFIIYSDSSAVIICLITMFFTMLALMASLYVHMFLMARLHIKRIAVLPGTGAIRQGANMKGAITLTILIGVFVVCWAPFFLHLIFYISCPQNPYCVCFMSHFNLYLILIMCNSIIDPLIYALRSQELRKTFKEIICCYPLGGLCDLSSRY

According to patent publication US20180360972A1, “THERAPEUTIC COMPOUNDS” (REGENTS OF THE UNIVERSITY OF MINNESOTA, priority 2017, published 2018):

Columns and labels:
hMC4R [1] = target: T1, hMC4R (Homo sapiens, UniProt P32245); test: PRESTO-Tango β-arrestin recruitment assay; type: cell-based; parameters: Flag; expressed in transfected cells; details: relative to NDP-MSH control; up to 10 μM
hMC4R [2] = target: T1, hMC4R; details: 1 μM; not significant; Nickolls et al. 2006; cited from earlier work

Substance	β-arrestin recruitment efficacy (in words) (hMC4R [1])	decrease of mean BRET signal compared to basal (hMC4R [2])
Ac-His-DPhe-Arg-Trp-NH2 [CJL-1-14]	maximal β-arrestin recruitment	–
α-MSH	–	approximately 20%
